What all share (format): cell-based
The subject of assay [1] is tumor cell lines with PTEN protein loss genotype. Put plainly: Intracellular uptake of FITC-labeled human serum albumin. The conditions noted are these: PTEN protein loss: BT579, MDA-MB436, H1299. The text has this: (§1) In contrast, it was not found in those with wild-type PTEN protein genotype (FIG. 12 and FIG. 13).
The test system of assay [2] is tumor cell lines with wild-type PTEN protein genotype. The description is as above. The conditions noted are these: wild-type PTEN: DU145, HT29.
Description: as §1

The test system of assay [3] is tumor cell lines with wild-type KRAS genotype. Put plainly: Intracellular uptake of human serum albumin, fluorescence microscopy. The conditions noted are these: wild-type KRAS: BXPC3, Pan02, DU145, HT29, MCF7. The text has this:
(§2) In contrast, it was not found in the tumor cell lines with wild-type KRAS genotype (FIG. 9 and FIG. 10).

Assay [4] deals with tumor cell lines with KRAS variant genotype. Described as above. The conditions noted are these: KRAS variant: AsPC3, Mia-paca2, Capan-1, panC1, 8988T, PC3, CT26, HCT116, SW480, H2122, A549.
Description: as §2

For the substance “human serum albumin: fluorescently labeled human serum albumin used for cell uptake”, the intracellular albumin uptake entry in assay [1] is listed as “large amounts of intracellular albumin uptake”; in assay [2], “not found”; in assay [3] it was “not found”; in assay [4] it was “large amounts of intracellular albumin uptake”.

Values taken from patent US20250302981A1, “NOVEL USE OF ANTICANCER AGENT PRODRUG CONJUGATE” (UNIVERSITY OF ULSAN FOUNDATION FOR INDUSTRY COOPERATION, priority 2020, published 2025).
